# Binding of CDR-mutated scFvs to a peptide of the spike HR2 region

The measurements come from Li et al. 2023 (doi:10.1038/s41467-023-39022-2) through the FLAb antibody collection.

Target peptide (SARS-CoV-2 spike, HR2 region): PDVDLGDISGINAS

Each scFv is VH, a (GGGGS)3 linker, VL, as in the parent Ab-14, and differs from it in the CDRs of the light chain only.
VH: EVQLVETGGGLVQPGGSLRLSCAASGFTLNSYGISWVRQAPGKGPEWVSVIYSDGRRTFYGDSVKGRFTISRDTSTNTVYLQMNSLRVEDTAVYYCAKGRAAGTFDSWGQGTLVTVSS
VL: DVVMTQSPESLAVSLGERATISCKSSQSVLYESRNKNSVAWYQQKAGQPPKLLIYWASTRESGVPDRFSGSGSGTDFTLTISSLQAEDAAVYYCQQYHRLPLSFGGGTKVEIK

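Phage display of a naive human antibody library on the peptide gave the parent. The variants were designed computationally from a first round of random CDR variants and then made and measured. Their group label is 14L_GP_Gibbs (GP: Gaussian process model; Gibbs: Gibbs sampling; a sequence that several methods proposed may carry one label only). In AlphaSeq, yeast of one mating type display the scFv and yeast of the other type display the target. After mating in shaken culture at 30 °C for 16 h, diploids were selected and their barcode pairs sequenced. Read counts were normalised to the haploid input and turned into Kd by a linear fit to BCL2-family pairs of known affinity, for each replicate. Mating was done six times.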

The parent's light chain CDRs are KSSQSVLYESRNKNSVA, WASTRES, QQYHRLPLS; each variant's own CDRs replace them letter for letter. Numbers give log10(Kd / nM), so 0 is 1 nM and 3 is 1 µM. Smaller is tighter. Averages over replicates are reported, and they cover detected replicates only.

CDR-L1	CDR-L2	CDR-L3	log10 Kd (nM) by replicate	log10 Kd (nM), mean	control signals
KMSPSYLYEDRAFNSVA	NASTREQ	QQYHRLPLS	0.90 / 0.64 / 0.53 / 1.04 / 0.29 / 0.77	0.69	0 of 18
KSSGSVEMLSRNVNNVA	EASTREL	QAYHRLPLS	0.81 / 0.58 / 0.51 / 0.82 / 0.56 / 0.36	0.61	1 of 18 (3.19)
KLSQEDWYESRNCNSVA	QASTREQ	QQYHRLPLS	0.51 / 0.28 / 0.53 / 0.39 / 0.62 / 0.59	0.49	1 of 18 (2.37)
KLSQSDLYEDRNANNVA	NASQRES	QVYHRLPLS	1.15 / 0.33 / 0.21 / 0.34 / 0.22 / 0.52	0.46	0 of 18
LLSQSELLESRNWNAVA	HASTRMS	QQYHRLPLS	0.45 / 0.22 / 0.46 / 0.14 / 0.35 / 0.41	0.34	2 of 18 (2.76)
KLSMSQEYESINKNSVA	NASTRLT	QQYHRLPLS	0.27 / 0.26 / 0.48 / 0.19 / 0.28 / 0.47	0.32	0 of 18
KVFPSELGESRNKMSVA	QASTRES	QQYHRLPLS	0.02 / 0.02 / -0.24 / -0.07 / -0.49 / 0.06	-0.12	0 of 18
KLSQQMLYESRNKNSVA	NASLRLS	QCYHRLPLS	0.94 / 0.91 / 0.56 / 0.60 / 0.67 / 1.00	0.78	2 of 18 (2.21)
KCQISVEQESRQKNSVA	HASTRES	QQYHRLPLS	0.87 / 0.19 / 0.14 / 0.13 / 0.28 / 0.13	0.29	0 of 18
KLQQMYEYESRNPNSVA	SASTREL	QQYHRLPLS	0.45 / 0.11 / -0.07 / 0.12 / 0.30 / 0.05	0.16	0 of 18
KLMQSVEYESRLANSVA	NASTRLE	QQYHRLPLS	-0.09 / -0.13 / -0.17 / -0.13 / -0.08 / 0.01	-0.10	1 of 18 (3.46)
KFSQSDDYEDRNKNSVA	EGSTRSS	QQYHRLPLS	0.14 / -0.01 / -0.09 / -0.02 / 0.00 / 0.11	0.02	0 of 18
KFQQSQLYESRMKNSVA	NASKRMS	QQYHRLPLK	1.02 / 1.18 / 1.16 / 0.88 / 1.23 / 1.04	1.08	2 of 18 (3.52)
KLSQSVGYEMRNKNSVA	EAQTREQ	QQYHRLPLS	-0.31 / -0.47 / -0.07 / -0.47 / -0.59 / -0.10	-0.34	0 of 18
KIQQSVLYESLNQNSVA	NASTRLS	QQYHRLPLS	0.44 / 0.63 / 0.47 / 0.68 / 0.30 / 0.69	0.54	2 of 18 (3.95)
AFSGSHLYESRMKNSVA	NASTREE	QQYHRLPLS	0.17 / 0.11 / 0.20 / -0.03 / 0.17 / 0.24	0.14	0 of 18
KCSLSVEQLSRQKNSVA	HASTRES	QQYHRLPLS	0.52 / 0.32 / 0.24 / 0.14 / 0.28 / 0.47	0.33	1 of 18 (2.36)
KCSQSVWQEERQKNSVA	NASQREQ	QQYHRLPLS	2.26 / 2.22 / 1.43 / 1.25 / 1.31 / 1.66	1.69	0 of 18
ASSPSVMGEERNSNSVA	AASTREQ	QQYHRLPLS	0.24 / -0.01 / -0.11 / -0.41 / -0.22 / -0.13	-0.11	0 of 18
KLSQSNLYEWRNDMSVA	NASQRES	QQYHRLPLS	0.37 / 0.11 / 0.09 / -0.07 / 0.14 / 0.21	0.14	1 of 18 (2.39)
KLMQSSGYESRNFNSVA	QASTRSS	QQYHRLPLS	0.70 / 0.43 / 0.56 / 0.40 / 0.53 / 0.66	0.55	1 of 18 (3.49)
KLSQSQLYEWRNMNSVA	NASTREM	QQYHRLPLS	0.17 / 0.00 / 0.03 / -0.01 / -0.07 / 0.15	0.04	1 of 18 (2.02)
KLSQSVGMQSRNKWSVA	NASTRES	QQYHRLPLS	0.70 / 0.81 / 0.58 / 0.54 / 0.51 / 0.60	0.62	1 of 18 (2.32)
KSSQEQDYQSRNINSVA	DASLRES	QQYHRLPLS	0.53 / 0.70 / 0.32 / 0.83 / 0.60 / 0.73	0.62	0 of 18
KSAYSELLESRNCNSVA	SASTREV	QQYHRLPLS	0.79 / 1.09 / 0.54 / 0.65 / 0.76 / 0.83	0.78	1 of 18 (3.18)
KLEQSAWLESRNFNAVA	SASQREL	QQYHRLPLS	0.91 / 0.81 / 0.97 / 0.94 / 1.04 / 0.93	0.93	2 of 18 (3.65)
KISQSMLYEPRNSNSVA	NASTRLR	QQYHRLPLS	0.42 / 0.64 / 0.42 / 0.09 / 0.39 / 0.69	0.44	0 of 18
KVSQSNLYESRNANSVA	NASQRCS	QQYHRLPLS	0.03 / -0.06 / -0.26 / -0.33 / -0.21 / -0.15	-0.16	3 of 18 (3.15)
KLDMSDLMESRNWNAVA	HASTREE	QQYHRLPLS	0.03 / 0.00 / -0.25 / -0.06 / 0.10 / 0.01	-0.03	0 of 18
KLSQSMLYESRNKNNVA	EASQRES	QSYHRLPLS	-0.14 / -0.17 / -0.35 / -0.36 / -0.39 / -0.14	-0.26	1 of 18 (2.99)
KVSQSVCYEDRLKNSVA	NASDRMS	QQYHRLPLS	0.57 / 0.35 / 0.12 / 0.30 / 0.55 / 0.32	0.37	1 of 18 (1.98)
KLQGSELGESRNKNSVA	SADTRLE	QQYHRLPLS	0.02 / 0.05 / -0.27 / -0.46 / -0.11 / 0.15	-0.10	0 of 18
KMFQSWGMEERNVNSVA	HASQRLD	QQYHRLPLS	0.83 / 1.72 / 1.09 / 0.40 / 0.69 / 1.02	0.96	0 of 18
KQSQSAWMEERNFNSVA	NASTRES	QQYHRLPLS	0.12 / -0.06 / -0.10 / -0.10 / -0.09 / -0.02	-0.04	3 of 18 (2.28)
KQEQSVMGESRWKNSVA	NASTRMS	QQYHRLPLS	0.72 / 0.36 / 0.35 / -0.20 / 0.60 / 0.73	0.43	0 of 18
KLSQSDLYESRNSNNVA	MASTRMV	QQYHRLPLS	-0.44 / -0.37 / 0.18 / 0.13 / 0.13 / 0.37	0.00	0 of 18
KLDPSDLMESRNWNSVA	QASTREI	QQYHRLPLS	0.11 / 0.14 / 0.01 / 0.12 / 0.25 / 0.33	0.16	2 of 18 (2.18)
KLPNSKLYESRMKNQVA	SASTREM	QQYHRLPLS	0.75 / 0.92 / 0.74 / 0.64 / 0.56 / 0.90	0.75	1 of 18 (1.65)
KIDQSELEESRNKNSVA	SATVREY	QQYHRLPLS	-0.12 / -0.08 / -0.33 / -0.35 / -0.31 / -0.13	-0.22	1 of 18 (2.13)
LLQGSEGYESRNKNSVA	DASTRES	QAYHRLPLS	0.12 / 0.25 / 0.08 / -0.04 / 0.16 / 0.08	0.11	1 of 18 (1.59)
KISQSVGYEIRNKNSVA	NASQRMQ	QQYHRLPLS	-0.12 / -0.28 / 0.06 / -0.46 / -0.29 / -0.04	-0.19	1 of 18 (3.00)
KVSQSHLYESRNDNNVA	QASYRES	QQYHRLPLS	0.90 / 0.63 / 0.26 / 0.64 / 0.57 / 0.67	0.61	1 of 18 (1.39)
WLSQSVELQSRNKNAVA	SASTRES	QQYHRLPLS	-0.04 / 0.17 / -0.15 / -0.12 / 0.01 / -0.17	-0.05	0 of 18

Extract of 5 entries:

CDR-L1	CDR-L2	CDR-L3	log10 Kd (nM) by replicate	log10 Kd (nM), mean	control signals
KVFPSELGESRNKMSVA	QASTRES	QQYHRLPLS	0.02 / 0.02 / -0.24 / -0.07 / -0.49 / 0.06	-0.12	0 of 18
KFQQSQLYESRMKNSVA	NASKRMS	QQYHRLPLK	1.02 / 1.18 / 1.16 / 0.88 / 1.23 / 1.04	1.08	2 of 18 (3.52)
KQEQSVMGESRWKNSVA	NASTRMS	QQYHRLPLS	0.72 / 0.36 / 0.35 / -0.20 / 0.60 / 0.73	0.43	0 of 18
KCSLSVEQLSRQKNSVA	HASTRES	QQYHRLPLS	0.52 / 0.32 / 0.24 / 0.14 / 0.28 / 0.47	0.33	1 of 18 (2.36)
KLSQSQLYEWRNMNSVA	NASTREM	QQYHRLPLS	0.17 / 0.00 / 0.03 / -0.01 / -0.07 / 0.15	0.04	1 of 18 (2.02)

The range of this assay differs from that of the first round, and the authors advise against merging the two. Background: pairings of all light chain designs with three empty control strains gave a value in 4% of cases (median 2.64, 5th percentile 1.59). Values in that range, when seen in few replicates, are hard to tell from nonspecific mating. The control count says in how many pairings with the empty strains this scFv gave a signal, with their mean in brackets. Of ten entries with the parent sequence, four were seen in most replicates (averages 0.34 to 2.37), three in one and three in none, so single entries are noisy. The authors averaged sequences with at least three values out of six and counted those with two or fewer as poor binders.